How the values were obtained:
Type in all cases: cell-based
HEK293 = assay: Selectivity ratio of EC50 for human GLP1R expressed in HEK293 cells to EC50 for human GLP2R expressed in HEK293
[1] = molecular target: T1, Glucagon-like peptide 2 receptor (Homo sapiens) (UniProt O95838); assay: Potency index, ratio of compound EC50 to compound 2 EC50 for human GLP2R expressed in HEK293 cells
T1 sequence (whole entry): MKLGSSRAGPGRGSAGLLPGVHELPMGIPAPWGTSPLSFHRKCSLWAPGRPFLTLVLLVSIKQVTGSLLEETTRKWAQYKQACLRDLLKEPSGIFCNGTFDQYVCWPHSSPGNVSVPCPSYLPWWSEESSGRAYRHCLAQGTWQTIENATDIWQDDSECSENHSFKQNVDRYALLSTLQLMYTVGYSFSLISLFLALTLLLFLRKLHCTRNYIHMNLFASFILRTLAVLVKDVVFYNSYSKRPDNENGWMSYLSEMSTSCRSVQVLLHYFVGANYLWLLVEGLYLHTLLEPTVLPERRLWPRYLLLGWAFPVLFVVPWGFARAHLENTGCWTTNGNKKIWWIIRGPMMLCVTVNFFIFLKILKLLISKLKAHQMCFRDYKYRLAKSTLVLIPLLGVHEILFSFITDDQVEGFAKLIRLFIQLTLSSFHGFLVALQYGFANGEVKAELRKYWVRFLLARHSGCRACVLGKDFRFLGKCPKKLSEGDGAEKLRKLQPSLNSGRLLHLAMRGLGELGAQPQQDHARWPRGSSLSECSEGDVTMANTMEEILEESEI

[2] = molecular target: T2, Glucagon-like peptide 2 receptor (Homo sapiens, UniProt O95838); assay: Agonist activity at human GLP2R expressed in HEK293 cells after 5 hrs by luciferase reporter gene assay
T2 sequence (O95838 whole entry): T1 sequence (whole entry)

Molecule `CC[C@H](C)[C@H](NC(=O)[C@H](Cc1ccccc1)NC(=O)[C@H](CC(=O)O)NC(=O)[C@H](CCCNC(=N)N)NC(=O)[C@H](C)NC(=O)[C@H](C)NC(=O)[C@H](CC(C)C)NC(=O)[C@H](CC(N)=O)NC(=O)[C@H](CC(=O)O)NC(=O)[C@H](CC(C)C)NC(=O)[C@@H](NC(=O)[C@@H](NC(=O)[C@H](CC(N)=O)NC(=O)[C@H](CCSC)NC(=O)[C@H](CCC(=O)O)NC(=O)[C@H](CC(=O)O)NC(=O)[C@H](CO)NC(=O)[C@H](Cc1ccccc1)NC(=O)[C@H](CO)NC(=O)CNC(=O)[C@H](CC(=O)O)NC(=O)CNC(=O)[C@@H](N)Cc1c[nH]cn1)[C@@H](C)O)[C@@H](C)CC)C(=O)N[C@@H](CC(N)=O)C(=O)N[C@@H](Cc1c[nH]c2ccccc12)C(=O)N[C@@H](CC(C)C)C(=O)N[C@H](C(=O)N[C@@H](CCC(N)=O)C(=O)N[C@H](C(=O)N[C@@H](CCCCN)C(=O)N[C@H](C(=O)N[C@H](C(=O)N[C@@H](CC(=O)O)C(=O)O)[C@@H](C)O)[C@@H](C)CC)[C@@H](C)O)[C@@H](C)CC` [TEDUGLUTIDE] has a Ratio EC50 (HEK293) greater than 11000, a Ratio EC50 [1] of 1 and an EC50 [2] of 0.09 nM.
